Reference: patent US10961200B2, “Small molecule inhibitors of lactate dehydrogenase and methods of use thereof” (THE UNITED STATES OF AMERICA, AS REPRESENTED BY THE …, priority 2014, dated 2021)

Tested on: MiaPaCa2 cells
Test: cell-based HT lactate assay, colorimetric/fluorometric detection (inhibition of lactate production)
Settings: read-out: Lactate activity (inhibition of lactate production); class symbols, 0 to 3 pluses
Experimental: Cell-based HT Lactate assay is a miniaturized Biovision Lactate Colorimetric/Fluorometric Assay Kit (Cat #K607-100). The assay is roughly a 3.5 hour assay run in a 1536 plate format. Cell number optimization should be run for each cell line to achieve an optimal number in which lactate production equals roughly 90% of the standard curve range. Cell number per well optimization has been performed with the following cell lines: MiaPaCa2—500 cells/well, SNU398—500 cells/well, and P493—500 cells/well.
The lactate activity in Table 8 is represented by 0 to 3 pluses as follows: +++<1 μM; ++1-10 μM; +10-57 μM; and −>57 μM.

Row | SMILES | IC50
1 | CC#Cc1cc(-c2nn(-c3nc(C(=O)O)cs3)c(CC3CC3)c2Cc2ccc(S(N)(=O)=O)c(F)c2)ccc1F | < 1000 nM
2 | NS(=O)(=O)c1ccc(Cc2c(-c3ccc(F)c(-c4cnoc4)c3)nn(-c3nc(C(=O)O)cs3)c2CC2CC2)cc1F | 1000 to 10000 nM
